Laboratory results reported in patent US12616750B2, “Combination therapy utilizing DNA alkylating agents and ATR inhibitors” (Merck Patent GmbH, priority 2018, dated 2026).

Key:
[1] = system: HCC-1954, Calu-3, SK-BR-3 and MDA-MB-468 cells; assay: MNED curve-shift assay, DRIs condensed regardless of cell line; assay type: cell-based; conditions: ADC combined with ATRi (AZD6738, VE-822) at MNED
Description: (§1) Therefore a curve-shift assay system was established. In a first step, a dose-response curve (DRC) is obtained by treating a certain cell line with an inhibitor. The maximum non-efficacious dose (MNED) can be derived from this DRC. MNED is the highest dose, that can be added to a certain cell line without affecting the viability. The activity of the ADC is confirmed in a separate experiment. Finally, a combination experiment can be conducted. Therefore, the ADC and ADC plus inhibitor at MNED are added to the cells. The inhibitor is tested in parallel at MNED as a control. Due to the application of inhibitor at MNED, no reduction in cell viability caused by the inhibitor is expected. Three outcomes are possible: 1) The combination of ADC plus inhibitor is equipotent as the ADC only. […] Such a result would be interpreted as depotentiation. […] In this case, the potency of the ADC is potentiated.
(§2) Potentiation effects are expressed as dose-reduction indices (DRI), which can be calculated by dividing the IC50-value of ADC by the IC50-value of ADC plus inhibitor according to eq. 1

HCC-1954 cells [2] = assay: Dose-matrix combination assay (synergy score, Loewe model); assay type: cell-based; conditions: combination with AZD6738; for Synergy score S: HCC-1954, 6 d
Description: (§3) Compounds were added using Tecan D300e liquid. […] Synergy scores were calculated using LOEWE synergy model.
(§4) The screening of synergistic drug combinations can be accomplished by performing a dose-matrix assay. Therefore, two drugs are serial diluted and mixed at every dose level, yielding a dose-matrix. The drug combination can be additive if the effects of the combination are identical to the added effects of the single agents. However, the effects of the combination might also be stronger than the activity of the single agents. This scenario is termed synergy, whereas weaker combination effects compared to the single agents are termed antagonism. A dose-matrix assay is depicted schematically in FIG. 2 which illustrates the outcomes of a dose-matrix assay: additivity, antagonism and synergy.
The screening was conducted by serial diluting the duocarmycin derivative DUBA (10) and the DDR inhibitors. […] DUBA was combined in a dose-matrix assay with hycanthone. The cell viability was measured after 6 d of treatment using the CellTiter-Glo assay kit. The signals of the cell viability assay were normalized to untreated cells and fitted. […] By subtracting the modeled data from the fitted data, an excess matrix was generated. The excess matrix can be considered as a visualization of the differences between model and actual data which also highlights spots of either high synergy or antagonism. The quantification of the combination effects, however, was performed by calculating synergy scores. […]
The scattering of S was determined in a sham control experiment to define a cutoff for classifying a combination as truly synergistic or antagonistic. Thus seven different compounds were combined with itself on four different cell lines and the three-σ confidence interval was calculated around the mean of the measurement. […]
Synergy scores (S) were obtained from the combination experiments that indicated additivity […] if model and actual response were equal. […] The magnitude of the score determined the extent of the combination effects.

MDA-MB-468 cells = assay: MNED curve-shift assay; assay type: cell-based; conditions: MDA-MB-468 (HER2-negative)
Description: as §1, §2
(§5) Evaluation was performed using GraphPad Prism version 6.05.
(§6) The determination of dose-reduction indices (DRI) in a maximum non-efficacious dose (MNED) curve-shift assay is a 3-step process as depicted exemplarily in FIG. 13. The cytotoxicity of the ADC is confirmed in a cell viability assay in an initial step. […] In the second step. the MNED of the ATRi was determined. […] In order to obtain a full […] for the combination, the starting concentration of the ADC was lowered compared to the experiment in step 1.

Calu-3 cells = assay: MNED curve-shift assay; assay type: cell-based; conditions: read-out: IC50 of ADC + AZD6738, AZD6738 constant at MNED (400 nM)
Description: as §1, §2, §5, §6

HCC-1954 cells [3] = assay: MNED curve-shift assay; assay type: cell-based; conditions: read-out: IC50 of ADC + AZD6738, AZD6738 constant at MNED (250 nM)
Description: as §1, §2, §5, §6

NCI-N87 cells = assay: Cytotoxicity (cell viability, CellTiter-Glo, 6 d); assay type: cell-based; conditions: NCI-N87, agent alone, 384-well format (footnote a)
Description: as §3

MDA-MB-453 cells = assay: Dose-matrix combination assay (synergy score, Loewe model); assay type: cell-based; conditions: combination with AZD6738
Description: as §3, §4

HCC-1954 cells [4] = assay: Cytotoxicity (cell viability, CellTiter-Glo, 6 d); conditions: HCC-1954, 6 d

Substance: Kadcyla
- mean DRI, condensed regardless of cell line [1]: 1.3
- Synergy score S (HCC-1954 cells [2]): 1.3±0.7
- Synergy score, single excluded measurement (HCC-1954 cells [2]; HCC-1954, measurement excluded from the mean): 6.4
- IC50 (MDA-MB-468 cells; VE-822 constant at MNED (300 nM), read-out: IC50 of ADC + VE-822): 0.031 ± 0.001 µM
- IC50 (MDA-MB-468 cells; read-out: IC50 of ADC + AZD6738, AZD6738 constant at MNED (300 nM)): 0.03 ± 0.001 µM
- IC50 (Calu-3 cells): 0.037 ± 0.022 µM
- IC50 (HCC-1954 cells [3]): 0.0004 ± 0.0002 µM
- IC50 (NCI-N87 cells): 0.0001 ± 2e-05 µM
- Synergy score S (MDA-MB-453 cells): 1.1±0.3

Substance: trastuzumab: αHER2 mAb, naked antibody
- anti-proliferative effects (in words) (HCC-1954 cells [4]): did not show any anti-proliferative effects
- Synergy score S (HCC-1954 cells [2]): −0.2±0.2

Read-outs that look alike come from different tables or passages of the source.
